Measurements taken from PMC7765948, “Spadin Modulates Astrocytic Passive Conductance via Inhibition of TWIK-1/TREK-1 Heterodimeric Channels” (International Journal of Molecular Sciences, 2020).

Assays:
TREK-1 = experiment: Whole-cell currents in COS-7 cells expressing TREK-1; format: cell-based, mouse; conditions: +50 mV, 10 µM spadin, bath pH 7.4, 20–22 °C
Method: (§1) cDNAs encoding for full-length mouse TREK-1 (GenBank accession no. NM_010607) and mouse TWIK-1 (NM_008430) were obtained by using an RT–PCR based gateway cloning (ThermoFisher, Waltham, MA, USA). TWIK-1 K274E mutant was generated using full-length cDNA as templates via the EZchange site-directed mutagenesis kit (Enzynomics, Daejeon, Korea). All constructs were cloned into pDEST-IRES2-GFP vectors by gateway cloning. […]
(§2) Current–voltage (I–V) curves were recorded from COS-7 cells expressing TWIK-1 K274E, TREK-1 or concatenated TWIK-1-TREK-1-IRES2-GFP. […] The I–V relations were measured by applying 1-s ramp pulses (from −150 mV to +50 mV) from a holding potential of −60 mV. […] Currents were analyzed with Clampfit software (Axon instruments, Union City, CA, USA). […]
(§3) All data are presented as means ± standard error of the mean (s.e.m). The significance of data for comparison was assessed by Student’s t-test (paired t-test) or one-way ANOVA followed by Turkey’s post hoc test, and significance levels are given as: n.s: not significant, * p < 0.05, ** p < 0.01, *** p < 0.001, and **** p < 0.0001. […]

[1] = system: concatenated TREK-1-TWIK-1 heterodimeric channel; experiment: Whole-cell currents in COS-7 cells expressing concatenated TWIK-1-TREK-1; format: cell-based, mouse; conditions: +50 mV, 10 µM spadin
Method: as §1, §2, §3

[2] = system: astrocytic passive conductance in mouse hippocampal slices; experiment: Astrocytic passive conductance in hippocampal slices after lentiviral shRNA knockdown; format: cell-based, mouse (C57BL/6); conditions: 10 µM spadin
From the text: For gene silencing in cultured astrocytes and mouse brain slices, TWIK-1 shRNA and TREK-1 shRNA were constructed and the knockdown efficiencies of these shRNAs were validated as described previously. Briefly, the target region of shRNA was as follows: mouse TWIK-1: 5′-[…]-3′; mouse TREK-1: 5′-[…]-3′. These target sequences were inserted into lentiviral pSicoR vector (Addgene okasnud #11579) and Scrambled shRNA-containing pSicoR construct was used as a control. These pSicoR vectors were transfected into primary cultured astrocytes to perform electrophysiological experiments. Transfected primary astrocytes were easily detected under a fluorescence microscope since GFP fluorescent protein is expressed from these pSicoR vectors.
Using lentiviral pSicoR vectors expressing validated mouse shRNAs against TWIK-1 and TREK- 1, high-titer lentiviruses were produced by KIST virus facility (Korea) as previously described. Lentiviruses were injected into hippocampal CA1 region (AP: 0.17, ML: 0.17, DV: 0.19) of 7–8 week-old wild-type C57BL/6 mice. […]
as §3

human TREK-1 = system: human TREK-1; set-up: method as in PMID 20405001, PMID 22022421, PMID 32317978; conditions: low concentrations; cited from earlier work

CC[C@H](C)[C@H](NC(=O)[C@@H]1CCCN1C(=O)CNC(=O)[C@H](CO)NC(=O)[C@H](Cc1c[nH]c2ccccc12)NC(=O)[C@H](CCCNC(=N)N)NC(=O)[C@@H]1CCCN1C(=O)[C@H](CC(C)C)NC(=O)[C@@H]1CCCN1C(=O)[C@H](C)NC(=O)[C@@H](N)Cc1ccc(O)cc1)C(=O)NCC(=O)N[C@H](C(=O)N[C@@H](CO)C(=O)N[C@@H](Cc1c[nH]c2ccccc12)C(=O)NCC(=O)N[C@@H](CC(C)C)C(=O)N[C@@H](CCCNC(=N)N)C(=O)O)C(C)C [spadin]
inhibition of TREK-1-mediated K^+ conductance (TREK-1): about 50%
K^+ conductance of concatenated heterodimeric channel with spadin [1]: largely inhibited
passive conductance with spadin ([2]; Lenti-ScRNA infected astrocytes): drastically decreased
passive conductance with spadin ([2]; Lenti-TWIK-1 shRNA or Lenti-TREK-1 shRNA infected astrocytes): not further affected
inhibition of human TREK-1 (human TREK-1): inhibited by spadin at low concentrations
